Measured values taken from BindingDB's records for doi:10.1021/bi00180a024 (Medical University of South Carolina, 1994).

By UniProt entry, the sequences of proteins in these tests, tags left out.
UniProt P08908, whole entry: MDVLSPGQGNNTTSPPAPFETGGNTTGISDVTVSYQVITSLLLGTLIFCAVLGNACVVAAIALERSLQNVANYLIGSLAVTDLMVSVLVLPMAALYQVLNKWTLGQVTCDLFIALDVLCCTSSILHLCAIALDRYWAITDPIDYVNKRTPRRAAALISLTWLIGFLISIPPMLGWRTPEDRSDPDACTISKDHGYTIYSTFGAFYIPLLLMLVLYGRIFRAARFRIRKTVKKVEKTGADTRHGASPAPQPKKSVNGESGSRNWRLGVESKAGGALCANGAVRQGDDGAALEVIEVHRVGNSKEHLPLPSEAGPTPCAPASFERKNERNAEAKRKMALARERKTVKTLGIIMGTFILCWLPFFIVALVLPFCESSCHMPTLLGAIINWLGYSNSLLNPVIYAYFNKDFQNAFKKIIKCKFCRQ

Target: 5-hydroxytryptamine receptor 1A (Homo sapiens, UniProt P08908)

Ki: 1500 nM
Structure (SMILES): COC(=O)[C@@H]1[C@H]2C[C@H]3c4[nH]c5ccccc5c4CCN3C[C@@H]2CC[C@@H]1O [yohimbic acid methyl ester]
